Biological target: T1, CYP1B1 (Homo sapiens, UniProt Q16678)
T1 construct: purchased Corning Inc
T1 sequence (Q16678 1-543): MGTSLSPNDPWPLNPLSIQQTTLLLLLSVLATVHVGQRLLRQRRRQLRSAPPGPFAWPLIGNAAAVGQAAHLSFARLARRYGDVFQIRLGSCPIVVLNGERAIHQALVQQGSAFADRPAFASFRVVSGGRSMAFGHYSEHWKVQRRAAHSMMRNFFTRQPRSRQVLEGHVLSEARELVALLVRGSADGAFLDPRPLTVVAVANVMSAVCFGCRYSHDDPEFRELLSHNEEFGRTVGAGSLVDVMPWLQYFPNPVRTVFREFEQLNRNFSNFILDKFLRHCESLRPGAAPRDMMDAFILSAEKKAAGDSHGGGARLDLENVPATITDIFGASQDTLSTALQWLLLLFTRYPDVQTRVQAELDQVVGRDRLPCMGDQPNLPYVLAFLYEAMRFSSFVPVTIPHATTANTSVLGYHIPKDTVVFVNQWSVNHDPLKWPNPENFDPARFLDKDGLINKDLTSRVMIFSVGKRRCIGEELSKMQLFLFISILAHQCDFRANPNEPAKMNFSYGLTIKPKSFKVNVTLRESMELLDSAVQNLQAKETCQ
Test: Enzyme inhibition assay, CYP1B1
Assay type: in vitro ADME
Conditions: Recombinant CYP1B1; 7-ethoxyresorufin O-deethylation

- IC50: 220 nM
SMILES: COc1cc(C=Cc2ccc(OC)cc2OC)cc(OC)c1 [2,4,3′,5′-tetramethoxystilbene]

From article PMC8706783 (Pharmaceutics, 2021)
